Source: ChEMBL document CHEMBL1137389, “Synthesis and biological properties of novel, uracil-containing histone deacetylase inhibitors” (J Med Chem, 2006)

Amino acid sequences for entries named in this document (tags omitted).
UniProt O09106, whole entry: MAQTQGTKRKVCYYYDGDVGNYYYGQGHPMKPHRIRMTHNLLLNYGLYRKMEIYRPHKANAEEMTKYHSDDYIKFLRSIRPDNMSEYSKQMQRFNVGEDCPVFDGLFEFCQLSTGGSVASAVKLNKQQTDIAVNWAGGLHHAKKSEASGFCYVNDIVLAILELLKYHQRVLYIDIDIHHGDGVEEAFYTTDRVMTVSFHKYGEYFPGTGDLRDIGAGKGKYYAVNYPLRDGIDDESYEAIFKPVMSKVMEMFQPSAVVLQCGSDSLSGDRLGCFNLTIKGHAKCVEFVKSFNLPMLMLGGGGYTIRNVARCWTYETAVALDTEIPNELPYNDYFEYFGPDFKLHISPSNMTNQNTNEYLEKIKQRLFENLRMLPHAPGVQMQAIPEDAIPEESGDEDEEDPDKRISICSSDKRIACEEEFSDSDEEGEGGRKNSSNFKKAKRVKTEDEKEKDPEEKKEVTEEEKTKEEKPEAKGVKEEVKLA

Target: Histone deacetylase 1 (Mus musculus, UniProt O09106)
Test: Inhibition of mouse HDAC1

IC50: 1.8 nM
Structure (SMILES): CC(/C=C/C(=O)NO)=C\[C@@H](C)C(=O)c1ccc(N(C)C)cc1 [TRICHOSTATIN]
